The target in assay [1] is T1, HIF-2α (Homo sapiens, UniProt Q99814). Briefly: HIF-2α Luciferase Reporter Assay (serum free) in HIF-Luc-786-0 cells. The settings on record: Opti-MEM, 786-0 reporter cells, 20 hours incubation. The class given is cell-based. The method, then:
(§1) Generation of HIF-2α Luciferase 786-0 Cell Line:
Stable cell lines were generated by transducing 786-0 cells (ATCC, CRL-1932) with Cignal Lenti HIF Luc Reporter lentivirus (CLS-007L, Qiagen) according to the manufacturer's guidelines. In brief, 0.3×10^6 786-0 cells were transduced with lentivirus at a multiplicity of infection (MOI) of 25 for 24 hours. After transduction, cells were replenished with fresh RPMI 1640 Medium (Cat. No. 11875085, Thermo Fisher) supplemented with 10% FBS (Cat. No. A3160502, Gibco), 2 mM GlutaMAX™ (Cat. No. 35050-061, Invitrogen) and 100 units of penicillin and 100 μg of streptomycin/mL (Cat. No 15070063, Thermo Fisher) for another 24 hours. […]
On day one, 20 uL of HIF-Luc-786-0 cells in Opti-MEM™ (Cat. No. 31985088, Thermo Fisher) were seeded into each well of a 384 well white opaque plate (Corning 3570) and incubated at 37° C. and 5% CO2. […] After 20 hours incubation at 37° C. and 5% CO2, luciferase activity was determined using ONE-Glo™ Luciferase Assay Reagent (E6110, Promega) following the manufacture's recommended procedure. Briefly, 40 uL of ONE-Glo™ luciferase reagents were added to each well and luciferase signals were measured using an Envision 2102 Multilabel Reader. Percentage maximum activity in each test well was calculated based on DMSO (maximum activity) and no cell control wells (baseline activity). […]

Protein sequences, listed by entry. Tags and fused reporters are not part of them. Lines headed by an entry give the natural chain unless they say otherwise; changes in a name come on top.
UniProt Q99814: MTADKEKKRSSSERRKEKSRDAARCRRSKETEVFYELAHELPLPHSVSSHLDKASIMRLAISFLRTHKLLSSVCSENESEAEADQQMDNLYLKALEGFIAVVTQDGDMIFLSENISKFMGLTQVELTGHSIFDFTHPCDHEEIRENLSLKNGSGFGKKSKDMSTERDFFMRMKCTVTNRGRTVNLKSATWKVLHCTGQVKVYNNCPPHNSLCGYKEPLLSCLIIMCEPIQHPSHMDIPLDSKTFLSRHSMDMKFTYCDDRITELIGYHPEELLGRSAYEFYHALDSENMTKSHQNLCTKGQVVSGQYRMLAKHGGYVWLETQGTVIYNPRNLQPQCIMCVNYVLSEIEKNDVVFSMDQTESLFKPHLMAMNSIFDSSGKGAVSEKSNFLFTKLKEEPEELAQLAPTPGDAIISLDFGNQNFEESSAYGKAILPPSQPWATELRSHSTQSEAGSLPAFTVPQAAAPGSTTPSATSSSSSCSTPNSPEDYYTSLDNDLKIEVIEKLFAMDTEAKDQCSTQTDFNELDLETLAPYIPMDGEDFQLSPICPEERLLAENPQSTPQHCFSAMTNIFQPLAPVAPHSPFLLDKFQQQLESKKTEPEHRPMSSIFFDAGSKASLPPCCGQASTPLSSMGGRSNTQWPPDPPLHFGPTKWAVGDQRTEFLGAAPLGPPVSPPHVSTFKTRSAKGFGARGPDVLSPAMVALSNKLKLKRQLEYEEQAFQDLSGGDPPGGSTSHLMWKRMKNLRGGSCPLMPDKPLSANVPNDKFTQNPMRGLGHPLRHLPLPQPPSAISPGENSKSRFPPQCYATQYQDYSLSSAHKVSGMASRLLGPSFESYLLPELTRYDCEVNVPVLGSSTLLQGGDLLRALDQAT

Assay [2] has as its target T1, HIF-2α. Briefly: HIF-2α Luciferase Reporter Assay (serum), HRE-luciferase 786-0 cells in 100% human serum. The settings on record: 786-0 reporter cells, overnight incubation, read-out: Serum Potency. The class given is cell-based. The protocol: as §1
Stable cell lines were generated by transducing 786-0 cells (ATCC, CRL-1932) with Cignal Lenti HIF Luc Reporter lentivirus (CLS-007L, Qiagen) according to the manufacturer's guidelines. In brief, 0.3×10^6 786-0 cells were transduced with lentivirus at a multiplicity of infection (MOI) of 25 for 24 hours. After transduction, cells were replenished with fresh RPMI 1640 Medium (Cat. No. 11875085, Thermo Fisher) supplemented with 10% FBS (Cat. No. A3160502, Gibco), 2 mM GlutaMAX™ (Cat. No. 35050-061, Invitrogen) and 100 units of penicillin and 100 μg of streptomycin/mL (Cat. No 15070063, Thermo Fisher) for another 24 hours. Antibiotic selection was performed in cell media containing 4 μg/mL of puromycin. After 7 days of antibiotic selection, stable pools of surviving cells were expanded and used in a luciferase reporter assay.
HIF-2α Luciferase Reporter Assay (Serum):
An HRE-luciferase stable reporter 786-0 cell line was maintained in active culture using RPMI 1640 (GIBCO) media supplemented with 1% penicillin-streptomycin, 1% GlutaMAX™, 10% FBS-One Shot (GIBCO) and 4 ug/ml of puromycin (Invitrogen). […] 40 ul/well of ONE-Glo™ reagent was added and allowed to incubate for 10 minutes before reading the luminescence signal on the Envision (PerkinElmer). Data was analyzed using 4-parameter logistic equation to generate IC50.

SMILES strings stand for the structures.

Take `CO[C@H](CCn1nc(C(F)(F)F)c2c1CCC(F)(F)[C@H]2O)C(F)(F)F` [Example 12, (4S)-5,5-difluoro-1-[(3R)-4,4,4-trifluoro-3-methoxybutyl]-3-(trifluoromethyl)-6,7-dihydro-4H-indazol-4-ol]: the IC50 at HIF-2α [1] and on HIF-2α [2] was less than 100 nM each time.

Source of the values: patent US12071411B2, “Inhibitors of HIF-2α and methods of use thereof” (ARCUS BIOSCIENCES, INC., priority 2021, dated 2024).
